From patent US9629921B2, “Smart pro-drugs of serine protease inhibitors” (Trustees of Tufts College, priority 2002, dated 2017)

Protein sequences, listed by entry. Tags and fused reporters are not part of them.
UniProt P27487, whole entry, species assumed: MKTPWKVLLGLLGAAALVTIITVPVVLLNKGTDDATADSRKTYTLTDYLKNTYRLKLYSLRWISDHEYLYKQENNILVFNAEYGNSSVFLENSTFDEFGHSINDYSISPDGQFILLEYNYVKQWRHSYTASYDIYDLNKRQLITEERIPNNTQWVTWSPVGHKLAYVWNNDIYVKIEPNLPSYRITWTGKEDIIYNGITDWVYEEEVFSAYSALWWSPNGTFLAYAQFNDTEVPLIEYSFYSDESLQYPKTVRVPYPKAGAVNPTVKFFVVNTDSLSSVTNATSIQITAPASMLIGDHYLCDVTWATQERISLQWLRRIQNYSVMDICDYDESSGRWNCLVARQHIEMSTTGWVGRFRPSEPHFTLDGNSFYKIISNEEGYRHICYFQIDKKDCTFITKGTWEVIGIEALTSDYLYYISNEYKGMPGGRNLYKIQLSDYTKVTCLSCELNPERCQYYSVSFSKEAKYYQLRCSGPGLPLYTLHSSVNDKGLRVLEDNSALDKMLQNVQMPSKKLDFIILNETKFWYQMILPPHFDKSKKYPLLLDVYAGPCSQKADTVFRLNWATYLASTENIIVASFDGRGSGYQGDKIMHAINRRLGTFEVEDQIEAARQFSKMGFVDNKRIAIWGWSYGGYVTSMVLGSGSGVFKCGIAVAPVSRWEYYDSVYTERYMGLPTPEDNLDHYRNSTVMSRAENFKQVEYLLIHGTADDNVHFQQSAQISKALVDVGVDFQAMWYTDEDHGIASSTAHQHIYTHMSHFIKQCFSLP

Molecular target: DPP IV (Homo sapiens, UniProt P27487)
Experiment: In vitro DPP IV enzyme inhibition assay; inhibitors incubated at pH 2 or pH 8, then added to enzyme assay solution at pH 8.0
Assay type: biochemical
Details: pre-incubated at low pH vs high pH (FIG. 3, FIG. 64, Table 1)
Protocol: Inhibitors were incubated overnight in pH 2 or pH 8 solutions and then added directly to an enzyme assay solution at pH 8.0.
It is important to note that the x-axis in FIG. 3 refers to the concentration of the SPI, not the concentration of the released Xaa-boroPro.

CC(C)[C@H](N)C(=O)N1CCC[C@H]1B(O)O [Val-boroPro]
pH dependence of DPP IV inhibition: more effective as inhibitors of DPP IV when pre-incubated at low pH than at high pH
